In ChEMBL document CHEMBL1130381, “Synthesis and evaluation of trimetoquinol derivatives: novel thromboxane A2/prostaglandin H2 antagonists with diminished beta-adrenergic agonist activity” (J Med Chem, 1997):

System: Adrenergic receptor beta-1/beta-2 (Cavia porcellus)
Experiment: Selectivity ratio of compound measured as Potency ratio of beta-2 receptor to that of potency ratio of beta-1
Type: protein assay

O=[N+]([O-])c1cc(CC2NCCc3cc(O)c(O)cc32)ccc1O (stereo unspecified)
Selectivity ratio: 5.5
